Test results: patent US9370183B2, “Use of ALS inhibitor herbicides for control of unwanted vegetation in ALS inhibitor herbicide tolerant Brassica, such as B. napus, plants” (Bayer Intellectual Property GmbH, priority 2011, dated 2016)

Columns and labels:
[1] = system: B. napus wild type variety SR002201; experiment: Greenhouse herbicide injury, visual scoring, wild type variety; format: in vivo, Brassica napus; settings: 15 g a.i./ha; spray at BBCH 12-13 with Mero 1 l/ha; visual scoring 14 days after application; 0%=no damage, 100%=all plants dead
Method: (§1) The individual components herbicide and surfactant with regard to type and application rate as stated in table 1 were added with stirring to a water application rate of 300 l/ha so that a homogeneous spray mixture was formed. The adjuvant Mero® (Bayer CropScience AG: active ingredient is 81% rapeseed oil methyl ester) was always added to the spray liquids with a use rate of one l/ha.
(§2) Seeds of B. napus were sown in a sandy loam soil and placed in a climate chamber in a greenhouse under good growth conditions (16 h light, temperature day 14° C., night: 8° C.). The plants (10 per experiment) were grown up to growth stage of BBCH 12 to BBCH 13. The plants were treated on a track sprayer with spray mixtures which had been prepared in accordance with the examples. After the treatment, the plants were returned to the climate chamber.
(§3) Visual scoring was carried out using a percentage scale of 0%=no damage to 100%=all plants dead.
Wild type seeds SR002201 for microspore isolation, culture and selection experiments of mutants have been deposited with the NCIMB, Aberdeen, UK, under Number NCIMB 41813.

B. napus mutant FM 202 = format: in vivo, Brassica napus; settings: 15 g a.i./ha; spray at BBCH 12-13 with Mero 1 l/ha; visual scoring 14 days after application; 0%=no damage, 100%=all plants dead
Method: as §1, §2, §3

## COc1cc(OC)nc(NC(=O)NS(=O)(=O)c2ncccc2C2=NOCCO2)n1 [Compound A1-87]
[1]
  Herbicide injury on BRSNS [%] SR002201: 95%
B. napus mutant FM 202
  Herbicide injury on BRSNS [%] FM 202: 0%
